Apparent affinities of Ab-14 variants for a coronavirus HR2 peptide

Source: Engelhart et al. 2022 (doi:10.1038/s41597-022-01779-4), MIT Lincoln Laboratory and A-Alpha Bio; data file from the FLAb repository.

The target is the same throughout: PDVDLGDISGINAS, from the HR2 region of SARS-CoV-2 spike.

The variants keep the heavy chain, the linker and the frameworks of Ab-14 (scFv order VH, a (GGGGS)3 linker, VL).
VH: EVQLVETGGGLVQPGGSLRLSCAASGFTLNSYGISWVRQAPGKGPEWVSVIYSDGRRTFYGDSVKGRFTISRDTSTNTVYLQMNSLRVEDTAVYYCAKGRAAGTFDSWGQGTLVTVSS
VL: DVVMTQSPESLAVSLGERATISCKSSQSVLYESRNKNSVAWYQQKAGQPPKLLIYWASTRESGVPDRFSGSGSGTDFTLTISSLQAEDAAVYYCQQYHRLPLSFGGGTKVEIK

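The starting antibody came from a phage panning campaign against this peptide. AAYL50 was designed without a model: most single CDR substitutions and a random sample of double and triple ones. Affinity was read by AlphaSeq, a pooled yeast mating assay with surface-displayed partners. Mating (16 h, 30 °C) was followed by selection of diploids and sequencing of their barcodes. A regression on co-assayed BCL2-family reference pairs converts the normalised counts of each replicate to an apparent Kd. Mating was done three times.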

Variants are written as CDR1, CDR2 and CDR3 of the light chain (limits as in the source). Parent: KSSQSVLYESRNKNSVA, WASTRES, QQYHRLPLS.
The read-out is the apparent dissociation constant on a log10 scale (nM): the lower, the stronger.
Replicates are averaged; those with no signal do not enter the mean.
"nd" marks a missing value. The strain was present, yet no cells mated with the target were sequenced in that replicate, which points to weak or no binding.
As a blank, each scFv also met three strains without target: over library AAYL50, 18% of these pairings were detected, typically at 4.19 and seldom below 2.99. For each scFv, signals with the empty controls are counted beside the result, with their mean in brackets.

| CDR-L1 | CDR-L2 | CDR-L3 | log10 Kd, replicates | log10 Kd (nM), mean | empty controls |
|---|---|---|---|---|---|
| KSSQEVLYESRNKNSVA | WASTRES | QQYRCLPLS | nd nd nd | nd | 0 of 9 |
| KSSQSVLYESRVKNSVA | WASTRES | QQYHRLPLS | 1.16 1.42 1.25 | 1.28 | 2 of 9 (3.86) |
| KSSQSVLYESRNKYSVA | WASTIES | QQYHRLPLS | nd nd nd | nd | 0 of 9 |
| KSSQSVLYESRNKASVA | WASTRHS | QQYHRLPLS | 1.36 1.40 1.46 | 1.41 | 2 of 9 (4.87) |
| KSFQSVLYEARNKNSVA | WASTRES | QQYHRLPNS | 4.73 3.87 4.09 | 4.23 | 7 of 9 (4.91) |
| KSSQSVLYESRNKNSVA | WASTRES | QDYHMLWLS | nd nd nd | nd | 0 of 9 |
| KSSQSVLYESRNKGSVA | WAMTRQS | QQYHRLPLS | 3.98 4.06 4.70 | 4.24 | 6 of 9 (3.96) |
| KSSQSVLYEPRNKNSVA | WASTRKS | QQYHRLRLS | nd nd nd | nd | 0 of 9 |
| KSSQSVLYELRNKNSVA | YASTRES | QQYHRLPLT | nd nd nd | nd | 0 of 9 |
| KSSQSVVHESRNKNSVA | WASTREH | QQYHRLPLS | 0.55 0.75 0.88 | 0.73 | 4 of 9 (4.35) |
| KSSYSVLYESRNKNSVA | WAGTRES | QQYHSLPLS | nd nd nd | nd | 0 of 9 |
| KSSQSVLYENRNKNSVA | WASTRES | QTYIRLPLS | nd nd nd | nd | 1 of 9 (3.65) |
| KSSQSSLYESLNKNSVA | WASTRES | QQYHRTPLS | 1.40 1.44 1.37 | 1.40 | 4 of 9 (4.79) |
| KSSQSVLYESRFKYSVA | WASTRES | QQYHQLPLS | 1.54 1.62 1.49 | 1.55 | 1 of 9 (3.78) |
| KSSQSVLYESRNKNHVA | WAPTRES | QQYHRYPLS | nd nd nd | nd | 7 of 9 (4.27) |
| KSGQSVLYESPNKNSVA | WASTRES | QQYHRLPMS | 4.43 2.85 3.23 | 3.50 | 0 of 9 |
| GSSTSVLYETRNKNSVA | WASTRES | QQYHRLPLS | 2.52 2.09 1.61 | 2.07 | 0 of 9 |
| GSSQSVLYESRNKNSVA | WASTRMS | QQAHRLPLS | nd 4.79 4.01 | 4.40 | 7 of 9 (4.51) |
| KSSQSVLYESRNKNSVA | WAPTRES | PQYHRLPLS | nd nd nd | nd | 0 of 9 |
| KSSQSVAYESRNKRSVA | WASTRES | QWYHRLPLS | 5.00 3.77 4.92 | 4.56 | 7 of 9 (4.15) |
| KSSQSVLYESRNKNSVA | WASEVES | QQYHFLPLS | 3.85 2.78 2.55 | 3.06 | 0 of 9 |
| KSSGSVLYESRNKNSVA | WASTRYS | QQYHYLPLS | nd nd nd | nd | 0 of 9 |
| KSSQSVLYESRNKNSVA | LASTRES | QVYGRLPLS | nd nd nd | nd | 0 of 9 |
| KSSRSVLYESRNKNEVA | WSSTRES | QQYHRLPLS | nd nd 2.61 | 2.61 | 0 of 9 |
| QQSQSVLYESRNKISVA | WASTRES | QQYHRLPLS | nd nd 5.75 | 5.75 | 4 of 9 (3.95) |
| KSSQSVLYESLNVNSVA | WASTRES | QQEHRLPLS | nd nd nd | nd | 2 of 9 (2.52) |
| KSSQSVAYESCNKNSVA | WRSTRES | QQYHRLPLS | 5.46 nd nd | 5.46 | 4 of 9 (4.65) |
| KSYQSVLYESRNKNSAA | WASTRES | QQQHRLPLS | nd 4.38 4.98 | 4.68 | 1 of 9 (4.71) |
| KSSQSVLYESRNKNSVA | WASTACS | QQYHRLPES | nd nd nd | nd | 0 of 9 |
| KSSQSVLYESRVKNSVA | HASTRES | QQYVRLPLS | 0.11 0.40 0.31 | 0.27 | 0 of 9 |
| KSSHSVGYESRNKNSVA | WASTREE | QQYHRLPLS | -0.10 0.21 0.00 | 0.04 | 1 of 9 (3.07) |
| KSSPSVLYHSRTKNSVA | WASTRES | QQYHRLPLS | nd nd nd | nd | 0 of 9 |
| KSSQSVLYESRNKNVVA | WASTNES | QQYHRLPTS | nd nd nd | nd | 0 of 9 |
| KSSQSVLYESRNKNKVK | WAVTRES | QQYHRLPLS | nd nd nd | nd | 0 of 9 |
| KSSQSVLYESSNKNSVA | WASTRES | QQYHRLPLL | nd nd nd | nd | 0 of 9 |
| KSSQSVLYNSRNKNSVA | WQSTREC | QQYHRLPLS | 2.59 2.13 2.62 | 2.44 | 6 of 9 (4.78) |
| KSSQSVLYEYRNKNSVA | WASTRES | QFYHRLPLN | 2.61 nd nd | 2.61 | 0 of 9 |
| KISQSVLHESRNKNSIA | WASTRES | QQYHRLPLS | -0.32 0.04 -0.21 | -0.16 | 6 of 9 (4.49) |
| HSEQSVLYESRNKNSVA | WASTRES | QQPHRLPLS | nd nd nd | nd | 0 of 9 |
| KSSQSVLYEGRNKNSVA | WYSTRES | TQYHRLPLS | nd nd nd | nd | 0 of 9 |
| KSSQSVLYETRNKNSVA | WASTRGS | AQYHRLPLS | 3.03 2.36 2.90 | 2.76 | 3 of 9 (5.18) |
| KSSQGVLYESRNKNSVA | WDSTRES | WQYHRLPLS | 6.07 4.46 4.94 | 5.16 | 4 of 9 (3.95) |

Top 4 of the variants detected in all replicates, tightest first:

{"CDR-L1": "KISQSVLHESRNKNSIA", "CDR-L2": "WASTRES", "CDR-L3": "QQYHRLPLS", "log10 Kd, replicates": "-0.32 0.04 -0.21", "log10 Kd (nM), mean": "-0.16", "empty controls": "6 of 9 (4.49)"}
{"CDR-L1": "KSSHSVGYESRNKNSVA", "CDR-L2": "WASTREE", "CDR-L3": "QQYHRLPLS", "log10 Kd, replicates": "-0.10 0.21 0.00", "log10 Kd (nM), mean": "0.04", "empty controls": "1 of 9 (3.07)"}
{"CDR-L1": "KSSQSVLYESRVKNSVA", "CDR-L2": "HASTRES", "CDR-L3": "QQYVRLPLS", "log10 Kd, replicates": "0.11 0.40 0.31", "log10 Kd (nM), mean": "0.27", "empty controls": "0 of 9"}
{"CDR-L1": "KSSQSVVHESRNKNSVA", "CDR-L2": "WASTREH", "CDR-L3": "QQYHRLPLS", "log10 Kd, replicates": "0.55 0.75 0.88", "log10 Kd (nM), mean": "0.73", "empty controls": "4 of 9 (4.35)"}